{
  "source": "paper PMC9535023",
  "about": "“Inhibition of phospholipase D1 induces immunogenic cell death and potentiates cancer immunotherapy in colorectal cancer” (Experimental & Molecular Medicine, 2022)",
  "test_system": "DLD1 cells",
  "assay": "Cell viability (MTT)",
  "format": "cell-based",
  "details": "dose- and time-dependent",
  "method": "Cell viability was measured by MTT (3-(4,5-dimethylthiazol2-yl)-2,5-diphenyltetrazolium bromide, Sigma-Aldrich). Cells (5 × 10^3 cells/well) were seeded in a 96-well plate. […] After treatment, the cells were incubated with 0.5 mg/mL MTT in the media for 2 h and lysed with DMSO. Absorbance was measured at 570 nm using a VersaMax ELISA microplate reader (Molecular Devices).",
  "data": [
    {"smiles": "C[C@@H](CN1CCC(n2c(=O)[nH]c3cc(Cl)ccc32)CC1)NC(=O)c1ccc2ccccc2c1", "note": "[VU0155069, reference compound]", "values": [
      {"measurement": "viability of DLD1 cells, in words", "result": "significantly inhibited the viability"}
    ]}
  ]
}
